The text below walks through data of PMC7032087 (Asian Journal of Pharmaceutical Sciences, 2016).

The nature of this data set: Pharmacokinetic study in SD rats after oral administration. Particulars: cephalexin 50 mg/kg p.o. without and with OPC 15 mg/kg. Format: in vivo.

For the compound `CC1=C(C(=O)O)N2C(=O)[C@@H](NC(=O)[C@H](N)c3ccccc3)[C@H]2SC1` [Cephalexin], the “difference between pharmacokinetic parameters of cephalexin without and with OPC” value is recorded as “no significant differences”.
